The record followed here is patent US20230255976A1, “Novel Compounds for the Treatment, Alleviation or Prevention of Disorders Associated with Tau Aggregates” (AC Immune SA, priority 2018, published 2023).

By UniProt entry, the sequences of proteins in these tests, tags left out. Residues count along the entry.
UniProt P10636, 561-689 limits assumed: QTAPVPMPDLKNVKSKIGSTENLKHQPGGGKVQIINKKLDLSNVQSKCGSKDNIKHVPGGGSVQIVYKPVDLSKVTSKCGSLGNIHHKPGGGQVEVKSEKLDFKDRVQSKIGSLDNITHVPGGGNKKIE

Bounds are passed on as bounds.

In general, EC50 refers to the concentration needed to bring the measured effect to its halfway point.

The assay concerns the target Tau K18 fragment aggregates (amino acids 244 to 372 of human Tau441) (Homo sapiens, UniProt P10636). Briefly: Tau K18 disaggregation assay by ThT. Particulars: read-out: Tau K18 disaggregation EC50; 2 μM K18 aggregates, compounds 160 to 0.04 μM, 30 min RT, ThT fluorescence; tested form: HCl.

Take `COC1CCN(c2ccc(N3CCc4c([nH]c5ccccc45)C3)cn2)CC1`: the EC50 is less than 10 µM.
